Molecules are shown by their SMILES. The entries are a selection whose mix differs from that of the whole data set. The source made the active and inactive calls.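 The calls were made as follows: active = activation above the mean over all tested compounds plus 3 SD (cut at about 30% in these data); inactive = the rest.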

The target of the assay is Troponin I, cardiac muscle (Homo sapiens) + Troponin T, cardiac muscle (Homo sapiens) + Troponin C, slow skeletal and cardiac muscles (Homo sapiens) (UniProt P19429+P45379+P63316). The assay can be described thus: cardiac RTF calcium sensitivity activators, primary screen, biochemical, IANBD-TnC fluorescence, EC20 calcium (AID 493008).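 Also: rise in fluorescence read as greater calcium sensitivity of cardiac thin filaments.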 Conditions: IANBD-labeled TnC RTF fluorescence at EC20 calcium; at 7.2 µM; stronger effect = higher value; 0% EC20 calcium, 100% full calcium.
With `O=[N+]([O-])c1ncn(CCn2cnc([N+](=O)[O-])n2)n1`, the activation was inactive: -0.73%.
Next, `CC(=O)NC(SC(=S)N(C)C)C(Cl)(Cl)Cl` (stereo not given): inactive: 1.25%; `O=[As](O)(c1ccccc1)c1ccc(O)cc1`: inactive: -1.25%.
To `C(Cc1nn[nH]n1)Cc1nn[nH]n1` belongs inactive: 3.35%; to `Nc1ccc([As](=O)(O)c2ccc([N+](=O)[O-])cc2)cc1`, inactive: 4.71%; to `O=C(OC1CN2CCC1CC2)c1cccc(Cl)c1` (stereo not given), inactive: 1.03%.
To `CCNC(=S)/N=C(\N)N[N+](=O)[O-]` belongs inactive: -0.82%; to `O=C(NC1CCS(=O)(=O)C1)NP(=S)(Oc1ccccc1)Oc1ccccc1` (stereo not given), inactive: -9.11%; to `O=P1(N(CCCl)CCCl)OCCC2CCCCN21` (stereo not given), inactive: -3.29%.
Consider `Cc1ccc(OP(=O)(Nc2ccccn2)Oc2ccc(C)cc2)cc1`, for which the activation is inactive: -0.52%.
To `CC(=O)NC(SC(=S)N(CC(C)C)CC(C)C)C(Cl)(Cl)Cl` (stereo not given) belongs inactive: 1.95%.
Next, `COC(=O)c1cc2c(s1)N=C(c1ccccc1)N(C)P2(=O)N1CCOCC1` (stereo not given): inactive: -0.32%; `CCC(=O)N1C2C3N(C(=O)CC)C1C1N(C(=O)CC)C(C(N1C(=O)CC)N3C(=O)CC)N2C(=O)CC`: inactive: 7.69%.
To `O=C(OC1CN2CCC1CC2)c1ccccc1` (stereo not given) belongs inactive: -3.71%; to `O=c1c2cc([N+](=O)[O-])ccc2[nH]c2c([N+](=O)[O-])cc([N+](=O)[O-])cc12`, inactive: 0.17%; to `CN(C)C(=O)Oc1noc2ccccc12`, inactive: -3.25%.
As for `CC(NC(=O)COC(=O)C(O)(c1ccccc1)c1ccccc1)c1ccccc1` (stereo not given), the activation was inactive: -1.35%.
Take `Cc1ccccc1OP(=O)(Nc1ccccn1)Oc1ccccc1C`: the activation is inactive: 9.88%.
As for `CCOc1ccc(C2=NCC(CBr)S2)cc1` (stereo not given), the activation is inactive: -6.62%.
`O=P1(Nc2nc3ccc(Cl)cc3s2)COc2ccccc2O1` (stereo not given): the activation is inactive: 7.52%.
`CCc1cc(O)c([N+](=O)[O-])c(C)c1[N+](=O)[O-]`: the activation is inactive: -0.59%.
Next, `CC(C)(C)C(=O)NC(Sc1ccccc1)C(Cl)(Cl)Cl` (stereo not given): inactive: -0.77%.
To `COC(=O)C1(C)COP(=O)(NCc2ccccc2)OC1` (stereo not given) belongs inactive: -3.84%; to `CC(=O)c1ccc(N2CC2c2ccncc2)cc1` (stereo not given), inactive: -5.04%.
On to `N#C/C(=C\c1ccc(N(CCBr)CCBr)cc1)C(N)=O`, for which the activation is inactive: 3.26%.
Next, `C[C@H]1OP(=O)(Oc2ccccc2)C[C@@H]2O[C@@H]21` (stereo not given in full): inactive: 1.88%; `C[C@@H]1C=CCP(=O)(Oc2ccccc2)O1` (stereo not given in full): inactive: -1.75%; `Cc1ccccc1CN(C)C(=O)COC(=O)C(O)(c1ccccc1)c1ccccc1`: inactive: -0.66%.
`CC(=O)Nc1ccc(Oc2c([N+](=O)[O-])cc([N+](=O)[O-])cc2[N+](=O)[O-])cc1`: the activation was inactive: 0.12%.
Next, `CC(=O)Nc1ccc([As](=O)(O)O)c(O)c1`: inactive: 0.27%.

The values above are taken from PubChem BioAssay AID493008 (The Scripps Research Institute Molecular Screening Center, 2010).
